This note sets out measurements from publication PMC5045942, “Evaluation of a novel PXR‐knockout in HepaRG™ cells” (Pharmacology Research & Perspectives, 2016).

The test system of the series is CYP3A4 mRNA. The experiment in a line: CYP3A4 mRNA induction in 5F HepaRG control cells (real-time PCR). Particulars: read-out: EC50, induction of CYP3A4 mRNA, 5F; 5F cells; 48 h; value of each individual experiment (two per cell).

As a reminder, the EC50 is the concentration needed to bring the measured effect to its halfway point.

As for `NC(=O)N1c2ccccc2C=Cc2ccccc21` [Carbamazepine, carbamazepine], the EC50 was found to be 42.1 µM.
